Values quoted from earlier work in patent publication US8623416B2 (priority 2009, dated 2014).

What was measured:
[1] = test system: tissue and cellular membranes; details: cited from earlier work
[2] = in vivo; cited from earlier work
[3] = in vivo, cited from earlier work

Substance: 3 beta-N-1-(N-[3-(4-aminobutyl)]-1,3-diaminopropane)-7 alpha,24 zeta-dihydroxy-5 alpha-cholestane 24-sulfate [squalamine]
- concentrations of squalamine that damage tissue and cellular membranes [1]: > 100 µg/mL
- dose selected as the Phase II dose [2]: 300 mg/m(2)/day
- dose-limiting toxicity [2]: two of three patients at 400 mg/m(2)/day had dose-limiting toxicity
- mean clearance (percentage coefficient of variation) ([3]; human): 2.67 liters/h/m(2)
- mean half-life ([3]; human): 9.46 h
- mean volume of distribution ([3]; human): 36.84 liters/m(2)
- principal dose-limiting toxicity [3]: Hepatotoxicity
- steady-state concentrations [3]: 20.08 micro g/ml
